Among the data in US11730714B2, “Compounds for the treatment of neuromuscular disorders” (NMD PHARMA A/S, priority 2017, dated 2023) are EC50 values, retold here.

Amino acid sequences for entries named in this document (tags omitted).
UniProt P35524, whole entry: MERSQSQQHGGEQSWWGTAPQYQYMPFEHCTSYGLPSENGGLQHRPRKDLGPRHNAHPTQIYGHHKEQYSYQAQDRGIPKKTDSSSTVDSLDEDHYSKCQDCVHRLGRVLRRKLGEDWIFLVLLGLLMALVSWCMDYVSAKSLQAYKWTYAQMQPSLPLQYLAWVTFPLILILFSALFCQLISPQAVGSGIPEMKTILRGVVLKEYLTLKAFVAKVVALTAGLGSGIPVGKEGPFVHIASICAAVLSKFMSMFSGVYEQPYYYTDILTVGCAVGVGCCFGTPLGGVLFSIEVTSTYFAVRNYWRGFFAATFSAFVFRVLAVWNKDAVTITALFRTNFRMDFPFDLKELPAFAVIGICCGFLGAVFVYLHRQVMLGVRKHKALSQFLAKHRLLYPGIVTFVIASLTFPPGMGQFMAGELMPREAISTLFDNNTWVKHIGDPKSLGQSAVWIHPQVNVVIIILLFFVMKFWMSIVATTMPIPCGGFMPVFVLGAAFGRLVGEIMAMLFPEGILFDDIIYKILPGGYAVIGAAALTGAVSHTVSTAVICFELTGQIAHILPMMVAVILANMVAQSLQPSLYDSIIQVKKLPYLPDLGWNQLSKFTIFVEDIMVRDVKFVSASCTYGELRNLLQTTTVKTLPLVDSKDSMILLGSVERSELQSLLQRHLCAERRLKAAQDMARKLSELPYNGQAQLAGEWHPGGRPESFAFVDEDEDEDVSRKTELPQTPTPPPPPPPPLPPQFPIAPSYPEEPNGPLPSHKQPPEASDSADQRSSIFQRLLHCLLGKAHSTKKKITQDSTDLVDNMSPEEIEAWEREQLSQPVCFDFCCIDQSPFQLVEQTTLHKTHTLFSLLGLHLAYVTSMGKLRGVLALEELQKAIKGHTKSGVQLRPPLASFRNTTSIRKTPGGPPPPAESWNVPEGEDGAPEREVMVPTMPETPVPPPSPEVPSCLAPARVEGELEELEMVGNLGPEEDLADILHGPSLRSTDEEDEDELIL

SMILES strings stand for the structures.

The target of the experiment is CIC-1 channels (Rattus norvegicus, UniProt P35524). As to the kind of experiment: Electrophysiological measurement of compound inhibition of CIC-1 in rat muscle (Gm, EC50). Conditions: read-out: EC50 (inhibition of ClC-1 ion channel, Gm); rat soleus muscle fibres, three micro-electrode Gm measurement.

Consider `CC(C)[C@@H](Oc1ccc(Br)cc1F)C(=O)O` [Compound A-4, (2R)-2-(4-bromo-2-fluoraphenoxy)-3-methylbutanoic acid], for which the half-maximal effective concentration (EC50) is more than 80 µM.
